The numbers were not newly measured in patent publication US20060246492A1 (published 2006), which cites them from elsewhere.

For the series, the system named is cell lines harboring activating mutations in EGFR. Particulars: rare cell lines with activating EGFR mutations vs most NSCLC cell lines; cell killing; cited from earlier work.

The structures appear in SMILES notation.

Consider `COc1cc2ncnc(Nc3ccc(F)c(Cl)c3)c2cc1OCCCN1CCOCC1` [gefitinib], for which the enhancement in sensitivity is reported as 50- to 100 fold.
